Values joined by “and” are separate entries in the source; they are usually repeats but may differ in a detail not shown here. Equal entries are not always repeated. Only a part is listed here, and it is no random draw. Inconclusive results are not listed. Active and inactive are the calls of the source. Calls come from the whole dose curve; as a rule, active = well fitted activation curve with a large enough effect; inconclusive = small, poorly fitted or top-dose-only effect, or another doubt; inactive = no such curve, though single readings can be large or run the other way.
Test: Primary qHTS for Identification of Small Molecule Activators of Huntingtin-Antisense Promoter Activity; note: nearly all actives have a fitted effect of over 55% in size
Conditions: HEK293 HTT-AS promoter firefly luciferase reporter, 24 h, percent change from vehicle, -100% = no light; at 57.5 µM (top of the series) unless noted
Text: Assay Provider: Russell L. Margolis M.D.
Department Neurology, Johns Hopkins University School of Medicine, Baltimore, MD
Huntington's Disease (HD) is a neurodegenerative disorder caused by a CAG repeat expansion in exon 1 of huntingtin (HTT). While there are currently no disease-modifying treatments for HD, recent efforts have focused on development of nucleotide-based therapeutics to lower HTT expression. As an alternative to siRNA or oligonucleotide methods, we hypothesized that suppression of HTT expression might be accomplished by small molecules that either (1) directly decrease HTT expression by suppressing HTT promoter activity or (2) indirectly decrease HTT expression by increasing the promoter activity of HTT-AS, the gene antisense to HTT that appears to inhibit expression of HTT.
We developed and employed a high throughput screen for modifiers of HTT and HTT-AS promoter activity using luminescent reporter HEK293 cells; of the 52,041 compounds tested, we identified 898 replicable hits. We used a rigorous stepwise approach to assess compound toxicity and the capacity of the compounds to specifically lower huntingtin protein in 5 different cell lines, including HEK293 cells, HD lymphoblastoid cells, mouse primary neurons, HD iPSCs differentiated into cortical-like neurons, and HD hESCs. We found no compounds which were able to lower huntingtin without lowering cell viability in all assays, though the potential efficacy of a few compounds at non-toxic doses could not be excluded.
SEQUENCE No. (1, 2, 3, etc.); […] […]
7; Detection; Luminescence; FLuc […]
1; High-throughput screening, measuring luminescence from a Hek293 luciferase reporter, was performed in 1,536 well white-walled tissue-culture treated plates. […]
4; Cells were then incubated for 24 hours at 37 degrees C prior to luminescence measurements.
5; In all cases, luminescence was measured using the Dual-Glo Luciferase Reporter Assay System (Promega) following the manufacturer's instructions. […]
7; Luminescence signal was obtained using the PerkinElmer ViewLux plate reader. […]

Structure (SMILES) | activity change, positive = activation
CN(CCCl)CCCl | inactive: -20.3% and inactive: -18%
CCC(=O)N(c1ccccc1)C1(COC)CCN(CCc2cccs2)CC1 | inactive: -9.88% [at 116 µM]
CCC(=O)N(c1ccccc1)C1(COC)CCN(CCn2nnn(CC)c2=O)CC1 | inactive: -17.2% [at 116 µM]

From PubChem BioAssay AID1508624 (National Center for Advancing Translational Sciences (NCATS), 2021)
